Assay results as given in PubChem BioAssay AID521 (Sanford-Burnham Center for Chemical Genomics, 2006).
“And” between values parts separate entries of the source, which are not always exact repeats. Equal values may be shown once. This is a selection; strong and weak results do not stand in their true shares. The source made the active and inactive calls. Rule as the data show it: active = inhibition above about 50%; inconclusive = no clear call, values can overlap the other calls; inactive = below that.

Chains of the proteins cited; added tags and fusions are not shown.
UniProt P35236, whole entry: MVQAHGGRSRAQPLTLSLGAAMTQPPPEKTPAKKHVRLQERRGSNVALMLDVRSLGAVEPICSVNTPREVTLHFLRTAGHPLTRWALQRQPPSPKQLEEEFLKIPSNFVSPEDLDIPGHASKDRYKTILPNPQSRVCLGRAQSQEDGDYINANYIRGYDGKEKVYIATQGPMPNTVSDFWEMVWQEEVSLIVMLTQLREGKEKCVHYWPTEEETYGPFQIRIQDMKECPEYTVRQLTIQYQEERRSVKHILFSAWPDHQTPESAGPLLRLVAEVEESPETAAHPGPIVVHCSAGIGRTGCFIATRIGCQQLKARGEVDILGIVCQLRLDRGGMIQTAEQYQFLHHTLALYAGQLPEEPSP

Target: Tyrosine-protein phosphatase non-receptor type 7 (Homo sapiens) (UniProt P35236)
Test: inhibitors of human HePTP phosphatase, primary screen, biochemical, absorbance, leukemia target (AID 521);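 also: plate controls were vehicle for no effect and reference inhibitor for full effect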
Settings: recombinant HePTP phosphatase activity, OD absorbance; at 20 µM; hits give high values

Row | Structure (SMILES) | inhibition
1 | CP(=S)(Nn1cnnc1)Oc1ccccc1 (centres undefined) | inactive: 11.9%
2 | CN(C)CCOC(=O)C(O)(c1ccccc1)c1ccccc1 | inactive: -8.2%
3 | CCOP(C)(=S)SCC(=O)NC(C)C(=O)O (centres undefined) | inactive: -10.5% and inactive: -2.6%
4 | CP(=O)(Oc1ccccc1F)Oc1ccccc1F | inactive: 5.1%
5 | CP(=O)(NC(=O)Nc1ccccc1)Oc1ccccc1 (centres undefined) | inactive: -12.5%
6 | COc1ccccc1OP(C)(=O)Nc1ccc(C)cc1 (centres undefined) | inactive: 9.7%
7 | Cc1ccc(NP(C)(=O)Oc2ccccc2)c(C)c1 (centres undefined) | inactive: -3.2%
8 | Cc1ccc(C)c(NP(C)(=O)Oc2ccccc2)c1 (centres undefined) | inactive: 12.7%
9 | CP(=O)(Oc1ccc(Cl)cc1)Oc1ccc(Cl)cc1 | inactive: -2.2%
10 | CP(=O)(Oc1ccccc1)Oc1ccccc1 | inactive: 5.4%
11 | Cc1nc2ccc3ccccc3c2s1.O=[N+]([O-])c1cc([N+](=O)[O-])c(O)c([N+](=O)[O-])c1 | inactive: 7%
12 | CN(C)CCOC(=O)C(O)(c1ccccc1)C1CCCCC1 (centres undefined) | inactive: -6.2%
13 | CP(=O)(Oc1ccc(F)cc1)Oc1ccc(F)cc1 | inactive: 11.5%
14 | CP(=O)(Nc1ccc2c(c1)OCCO2)Oc1ccccc1 (centres undefined) | inactive: 22.1%
15 | Cc1ccccc1NP(C)(=O)Nc1ccccc1C | inactive: 2.1%
16 | CCOP(C)(=S)SCC(=O)NC(C)(CC)C(=O)O (centres undefined) | inactive: 7.3%
17 | CP(=O)(Nc1ccccc1F)Oc1ccccc1 (centres undefined) | inactive: 5.3%
18 | Cc1nc2ccc3ccccc3c2o1.O=[N+]([O-])c1cc([N+](=O)[O-])c(O)c([N+](=O)[O-])c1 | inactive: -0.3%
19 | COc1ccccc1OP(C)(=O)Nc1ccc(C)c(C)c1 (centres undefined) | inactive: 3.2%
20 | CP(=O)(Nc1ccccn1)Oc1ccccc1 (centres undefined) | inactive: -4.8%
21 | CCc1ccc(OP(C)(=O)O)cc1 | inactive: 0.3%
22 | CCN(CC)CC(O)COC(=O)C(O)(c1ccccc1)C1CCCCC1 (centres undefined) | inactive: -0.8%
23 | COc1ccccc1OP(C)(=O)Nc1c(C)n(C)n(-c2ccccc2)c1=O (centres undefined) | inactive: -6.2%
24 | CP(=O)(Oc1ccccc1)N1CCOC1=O (centres undefined) | inactive: 0.5%
